## Apparent affinities of Ab-14 variants for a coronavirus HR2 peptide

The measurements come from Li et al. 2023 (doi:10.1038/s41467-023-39022-2) through the FLAb antibody collection.

All variants were tested on one target, the spike HR2 peptide PDVDLGDISGINAS (SARS-CoV-2).

Parent: Ab-14, a human scFv built as VH, a (GGGGS)3 linker, VL. Only the CDRs of the heavy chain vary.
VH: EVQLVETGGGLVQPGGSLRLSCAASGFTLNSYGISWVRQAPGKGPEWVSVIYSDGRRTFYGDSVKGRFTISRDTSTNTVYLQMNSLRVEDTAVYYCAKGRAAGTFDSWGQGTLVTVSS
VL: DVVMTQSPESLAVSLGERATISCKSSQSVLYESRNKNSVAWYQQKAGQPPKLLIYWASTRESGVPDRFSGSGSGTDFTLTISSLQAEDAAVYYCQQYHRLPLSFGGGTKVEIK

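Phage display of a naive human antibody library on the peptide gave the parent. Designed CDR sequences, proposed from the first random library and measured here. Their group label is 14H_En_Gen (En: ensemble of fine-tuned language models; Gen: genetic algorithm). The scFvs were displayed on barcoded MATa yeast, the peptide on MATalpha yeast. After mating in shaken culture at 30 °C for 16 h, diploids were selected and their barcode pairs sequenced. Each replicate has its own calibration line, from reference interactions of the BCL2 family. Each pool was mated in six replicate cultures.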

The parent's heavy chain CDRs are GFTLNSYGIS, VIYSDGRRTFYGDSVK, GRAAGTFDS; each variant's own CDRs replace them letter for letter.
Affinities are written as log10 Kd with Kd in nM; a lower number is a better binder.
Where no diploid with the target was found in that replicate, the entry reads "n.d.": below detection, most likely a poor binder, though not proof of it.
The authors' rule: three or more of the six replicates give a measured affinity, fewer mean a poor binder.
Nonspecific signal, from three strains lacking the peptide, appeared in 1% of pairings of all heavy chain designs, centred on 2.08 (5% of these signals below 0.84); values are not corrected for it. The control count says in how many pairings with the empty strains this scFv gave a signal, with their mean in brackets.
The parent sequence was in this pool as ten entries: three were never detected, three once, and four in most replicates, with averages from 0.34 to 2.37.
Values of this round are not directly comparable with the first-round values of the same sequences.

CDR-H1,CDR-H2,CDR-H3,log10 Kd (nM) by replicate,empty controls
GFDLNEYGIS,VIYADGVRTAYANDVK,GEVAGTFDV,-0.45 -0.40 -0.69 -0.52 -0.46 -0.33,0 of 18
GFDLNEYGIS,VIYADGKRTYYADSVK,GENAGTFDM,-0.38 -0.20 n.d. 0.11 0.01 0.21,0 of 18
GFDLNEYGIS,VIYADGKRTAYIDSVK,GNEAGTFDV,-0.39 -0.30 -0.42 -0.29 -0.50 -0.15,3 of 18 (2.27)
GFDLDEYGIS,VIYADGKRTFYSDSVK,GENAGTFDV,0.02 -0.54 -0.14 -0.43 -0.15 -0.18,0 of 18
GFDLNEYGIS,VIYADGKRTAYADSVK,GQNAGTFDT,-0.76 -1.01 -0.64 -1.00 -0.75 -0.51,0 of 18
GFDLNEYGIS,VIYADGMRTAYADSVK,GQVAGTFDI,-0.51 -0.07 -0.37 -0.82 -0.49 -0.08,0 of 18
GFDLNEYGIS,VIYADGKRTVYADSVK,GNQAGTFDV,-0.74 -0.84 -0.96 -1.17 -1.15 -1.09,1 of 18 (1.98)
GFDLDEYGIS,VIYADGSRTAYADSVK,GEVAGTFDM,-0.13 -0.06 -0.34 -0.14 0.03 0.17,0 of 18
GFDLDEYGIS,VIYADGMRTAYADSVK,GQNAGTFDL,-0.58 -0.04 -0.36 -0.49 -0.79 -0.57,0 of 18
GFDLDEYGIS,VIYADGVRTAYSDSVK,GNQAGTFDL,0.01 -0.14 -0.28 -0.52 -0.23 -0.01,0 of 18
GFDLNEYGIS,VIYADGMRTAYADDVK,GNVAGTFDS,-0.62 -0.57 -0.63 -0.76 -0.22 -0.59,0 of 18
GFDLDEYGIS,VIYADGKRTAYTDSVK,GNVAGTFDQ,-0.67 -0.44 -0.81 -0.73 -0.83 -0.66,0 of 18
GFDLEEYGIS,VIYADGMRTAYTDSVK,GNVAGTFDL,-0.61 -0.11 0.27 -1.01 -0.25 -0.70,0 of 18
GFDLNEYGIS,VIYADGSRTVYADSVK,GQNAGTFDV,-0.76 -0.74 -0.37 -0.34 -1.58 -0.94,0 of 18
GFDLNEYGIS,VIYADGLRTAYTDSVK,GNQAGTFDV,-0.43 -0.07 -0.04 -0.43 -0.41 -0.29,1 of 18 (2.25)
GFDLDEYGIS,VIYADGLRTAYADSVK,GNVAGTFDL,0.20 -0.18 -0.20 -0.02 0.08 0.11,1 of 18 (3.30)
GFDLNEYGIS,VIYADGRRTAYADSVK,GQVAGTFDL,-0.29 -0.38 -0.43 -0.47 -0.34 -0.16,1 of 18 (2.36)
GFDLNEYGIS,VIYADGMRTAYADSVK,GENAGTFVL,2.12 1.58 0.82 1.36 1.45 1.14,1 of 18 (2.19)
GFDLDEYGIS,VIYADGQRTAYADDVK,GNVAGTFDQ,-0.60 -1.25 -1.45 -1.56 -1.90 -0.88,1 of 18 (-0.16)
GFDLDEYGIS,VIYADGRRTAYVDSVK,GNNAGTFDV,0.36 -0.33 0.10 -0.58 -0.20 0.11,0 of 18
GFDLNEYGIS,VIYADGVRTAYANSVK,GNVAGTFDV,-0.61 -0.76 -1.02 -0.80 -1.11 -0.64,0 of 18
GFDLNEYGIS,VIYADGMRTAYAESVK,GNVAGTFDI,-0.01 0.10 -0.57 -0.72 -0.09 -0.47,0 of 18
GFDLNEYGIS,VIYADGVRTAYADDVK,GTNAGTFDI,0.52 -0.24 -0.10 -0.03 -0.09 0.14,0 of 18
GFDLNEYGIS,VIYADGKRTAYADDVK,GEVAGTFDT,0.90 -0.19 0.00 -0.81 -0.56 0.15,0 of 18
GFDLNEYGIS,VIYADGQRTAYTDSVK,GNVAGTFDI,0.64 0.81 0.70 0.49 0.43 0.67,1 of 18 (1.75)
GFDLNEYGIS,VIYADGMRKAYSDSVK,GNVAGTFDL,-0.64 -0.83 -0.70 -1.14 -0.68 -0.51,0 of 18
GFDLNEYGIS,VIYADGVRQAYADDVK,GNQAGTFDV,0.10 0.31 -0.10 0.40 -0.11 -0.08,0 of 18
GFDLNEYGIS,VIYADGKRTAYVDDVK,GQNAGTFDV,-0.53 -0.54 -0.68 -0.75 -0.71 -0.66,0 of 18
GFDLNEYGIS,VIYADGVRTAYADSVK,GNTAGTFDT,-0.81 -1.50 -1.28 -1.45 -1.10 -1.27,0 of 18
GFDLNEYGIS,VIYADGMRKAYADSVK,GNTAGTFDI,-0.10 -0.35 -0.19 -0.40 -0.13 0.08,2 of 18 (3.00)
GFDLDEYGIS,VIYADGMRTAYSDSVK,GKNAGTFDV,0.27 -0.09 -0.18 0.00 -0.13 0.30,0 of 18

The closing 4 entries, repeated:

CDR-H1,CDR-H2,CDR-H3,log10 Kd (nM) by replicate,empty controls
GFDLNEYGIS,VIYADGKRTAYVDDVK,GQNAGTFDV,-0.53 -0.54 -0.68 -0.75 -0.71 -0.66,0 of 18
GFDLNEYGIS,VIYADGVRTAYADSVK,GNTAGTFDT,-0.81 -1.50 -1.28 -1.45 -1.10 -1.27,0 of 18
GFDLNEYGIS,VIYADGMRKAYADSVK,GNTAGTFDI,-0.10 -0.35 -0.19 -0.40 -0.13 0.08,2 of 18 (3.00)
GFDLDEYGIS,VIYADGMRTAYSDSVK,GKNAGTFDV,0.27 -0.09 -0.18 0.00 -0.13 0.30,0 of 18